Reference: patent US20090275546A1, “Diagnostic tests and personalized treatment regimes for cancer stem cells” (Istituto Superiore di Sanita, priority 2008, published 2009)

Test system: colon CSCs
Assay: kinase inhibitor library screening, ATP-based viability assay
Format: cell-based, human

Question: With `N#CC(=C(/N)Sc1ccccc1N)/C(C#N)=C(\N)Sc1ccccc1N` [U0126] as the molecule, how does the “effect on colon CSC proliferation / number versus DMSO controls” value read?
Answer: significantly lead to a reduction in colon CSC numbers
